From patent US8637554B2, “Methods for treating thyroid cancer” (The Trustees of the University of Pennsylvania, priority 2008, dated 2014) come the findings set out here.

The assay relates to metastatic papillary thyroid carcinoma (mPTC). Put plainly: Response by CT and PET scan in two patients with metastatic papillary thyroid carcinoma on sorafenib. It counts as in vivo, human. The method, then: Patient 1: A person palpated a right-sided neck mass in August 2004. The patient underwent total thyroidectomy with lymph node dissection and pathology confirmed mPTC in one of eight lymph nodes. They were treated with ^131I and placed on thyroid hormone replacement. In August 2005, an enlarged lymph node was palpated in their neck.
Treatment began on Apr. 18, 2006. Toxicity was assessed at every four weeks and response to treatment was assessed using serial CT and PET scans.
Patient 2: A person presented with a sore throat in March 2002. Their physician noted only right sided cervical lymphadenopathy. […] Thyroidectomy and right neck lymph node dissection removed a 2.5 cm tall-cell PTC with 12 of 49 lymph nodes containing mPTC.
PET scans were obtained on a dedicated whole-body PET scanner (C-PET, Phillips). At FDG injection, patients had fasted for 6 hours and blood glucose levels were less than 150 mg/dL. Image acquisition started 60 min following intravenous administration of FDG at a dose of 1.85 MBq/kg (0.05 mCi/kg) body weight. A transmission scan was obtained for attenuation correction.

As to `CNC(=O)c1cc(Oc2ccc(NC(=O)Nc3ccc(Cl)c(C(F)(F)F)c3)cc2)ccn1` [sorafenib], for the setting “Patient 1, three and seven weeks after starting treatment”, the PET metabolic activity result is listed as “marked decrease in metabolic activity”. For the same compound, the “Size of largest target lesion” value (Patient 2, after 12 weeks, from 3.6 cm) worked out at 1.3 cm.
